In one assay the target is T1, human VEGF (human, UniProt P15692-4 27-191, limits assumed).
T1 construct: Coated on immunoplates; also called hVEGF; h-VEGF
In words: BIACORE, h-VEGF coated on the chip, Fab injected.

By UniProt entry, the sequences of proteins in these tests, tags left out. Chains listed by the source or under a name are the forms on record and can include a tag or linker.
UniProt P15692, other isoform, or with tags, fused parts or gaps limits assumed: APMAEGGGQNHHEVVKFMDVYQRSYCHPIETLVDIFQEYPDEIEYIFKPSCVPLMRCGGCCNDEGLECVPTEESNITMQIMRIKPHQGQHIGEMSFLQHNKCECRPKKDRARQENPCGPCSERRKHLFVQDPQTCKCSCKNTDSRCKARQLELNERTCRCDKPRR
UniProt Q00731, other isoform, or with tags, fused parts or gaps limits assumed: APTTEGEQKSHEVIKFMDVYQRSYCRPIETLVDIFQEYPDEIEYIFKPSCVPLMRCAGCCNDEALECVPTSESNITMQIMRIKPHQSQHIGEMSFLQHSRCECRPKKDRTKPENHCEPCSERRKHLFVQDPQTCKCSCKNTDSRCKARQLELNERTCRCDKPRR

In the next assay the target is T2, murine VEGF (murine, UniProt Q00731-2 27-190, limits assumed).
T2 construct: Coated on immunoplates; also called mVEGF
In words: BIACORE, m-VEGF coated on the chip, Fab injected.

Among the data in patent publication US20090023602A1 (Genentech, published 2009) are Kd values, retold here.

What is called Kd is the concentration at which binding is half-saturated. Lower therefore signals higher affinity.

B1: YADS-2 (Fab, V domains shown)
VH: EVQLVESGGGLVQPGGSLRLSCAASGFAISDYDIHWVRQAPGKGLEWVADIAPYAGATAYADSVKGRFTISADTSKNTAYLQMNSLRAEDTAVYYCSRSSYAYYAAMDYWGQGTLVTVSS
VL: DIQMTQSPSSLSASVGDRVTITCRASQSYAYAVAWYQQKPGKAPKLLIYDASYLYSGVPSRFSGSGSGTDFTLTISSLQPEDFATYYCQQAYSSPDTFGQGTKVEIK
In the assay with human VEGF, B1 displayed a dissociation constant Kd of 10 nM.

B2: YADS-3 (Fab, V domains shown)
VH: EVQLVESGGGLVQPGGSLRLSCAASGFSISDYDIHWVRQAPGKGLEWVAAIAPYSGSTYYADSVKGRFTISADTSKNTAYLQMNSLRAEDTAVYYCSRSSYAYYSAMDYWGQGTLVTVSS
VL: DIQMTQSPSSLSASVGDRVTITCRASQASYYDVAWYQQKPGKAPKLLIYAASYLYSGVPSRFSGSGSGTDFTLTISSLQPEDFATYYCQQYYYAPATFGQGTKVEIK
B2: the figures for the Kd with human VEGF and with murine VEGF were 3 nM and 2.5 nM, respectively.

B3: YADS-1 (Fab, V domains shown)
VH: EVQLVESGGGLVQPGGSLRLSCAASGFDIYDDDIHWVRQAPGKGLEWVAYIAPSYGYTDYADSVKGRFTISADTSKNTAYLQMNSLRAEDTAVYYCSRSSDASYSYSAMDYWGQGTLVTVSS
VL: DIQMTQSPSSLSASVGDRVTITCRASQASYSSVAWYQQKPGKAPKLLIYAASYLYSGVPSRFSGSGSGTDFTLTISSLQPEDFATYYCQSSASPATFGQGTKVEIK
Turning to B3, binding in the assay with human VEGF was put at a Kd of 2 nM.
